Results from patent US20170247429A1, “BLOOD-BRAIN BARRIER DISRUPTING AGENTS AND USES THEREOF” (TEL HASHOMER MEDICAL RESEARCH INFRASTRUCTURE AND SERVICES …, priority 2014, published 2017).

Columns and labels:
[1] = tested on: porcine brain endothelial cells monolayer (PBEC-M); test: TEER measurement in the in-vitro BBB model (PBEC-M on Transwell inserts); type: cell-based; conditions: for Max. BBB opening after 2 hrs (% of initial TEER): 0 indicates maximal opening of the BBB
Procedure: Primary cultures of porcine brain endothelial cells monolayer (PBEC-M) were used as a cellular barrier. In brief, cells were isolated from freshly collected porcine brains as described previously (Cooper et al., J Neurochem 2011, 116: 467-475). Culture purity was confirmed by specific staining for Von-Willebrand factor. PBEC were seeded at a density of 100,000 PBEC/cm^2 on a microporous membrane of a Transwell insert placed into a 12 well plates. Cells were cultured in plating medium for up to 3 days until reaching confluence. Plating medium was composed of newborn calf serum (10%), L-glutamine (2 mM), penicillin (100 units/ml), streptomycin (0.1 mg/ml) and gentamicin (0.1 mg/ml), all dissolved in Earl's Medium 199. The medium was replaced with a serum-free medium (assay medium) for an additional period of 24-48 hr. The assay medium consisted of L-glutamine (2 mM), penicillin (100 units/ml), streptomycin (0.1 mg/ml), gentamicin (0.1 mg/ml) and hydrocortisone (550 nM) in Dulbecco-modified Earls medium (DMEM) diluted 1:1 in Hams F12 medium. The integrity of this cellular barrier was determined by measuring TEER, which reflects the impedance to the passage of small ions through the physiological barrier and is recognized as one of the most accurate and sensitive measures of BBB integrity. A decrease in TEER reflects increase impermeability and a loss of barrier function. TEER of the filter insert was recorded using an Endohm chamber connected to an EVOM resistance meter. The effective TEER of each filter insert was calculated by subtracting the TEER of the microporous membrane without PBEC and is reported in units of Ωcm^2. For testing the effects of the different modified HSA compounds on TEER, they were diluted in assay medium at the desired concentrations, and added to the luminal (to mimic blood to brain passage) or abluminal (to mimic brain to blood passage) side of the inserts.
The following six modified HSA analogues were tested for their potency to disrupt the BBB in the in-vitro BBB model: HSA in which 85 carboxylic moieties were linked to glycine amide (Gly85-HSA); HSA in which 83 carboxylic moieties were linked to leucine amide (Leu83-HSA); HSA in which 80 carboxylic moieties were linked to ethylamine (EA-HSA); HSA in which 78 carboxylic moieties were linked to alanine amide (Ala78-HSA); HSA in which 79 carboxylic moieties were linked to propylamine (PA79-HSA); HSA in which 80 carboxylic moieties were linked to ethanol amine (E-Alco-HSA).
The effect of cationized-HSA analogues on the permeability of BBB was determined using an in-vitro BBB model as described in Example 1.

[2] = tested on: porcine brain endothelial cells monolayer (PBEC-M); test: In-vitro permeability of methotrexate across PBEC-M; type: cell-based; conditions: for permeability value for the penetration of MTX: inserts treated 2 hr at abluminal side with 14 μM, MTX 1 mM at luminal side, mean±SEM
Procedure: (§1) To evaluate the ability of MTX to permeate BBB, the in-vitro BBB model described in Example 1 was employed. BBB inserts were treated for 2 hr at the abluminal side with EA derivatized HSA (14 μM; right column) or assay medium (left column) serving as control. MTX (1 mM) was placed at the luminal side, and the amount reached the abluminal side, in the presence and the absence of the EA-HSA, was quantitated by absorption at 305 nm, using ε305=22,700. Permeability values were calculated as previously described (Cohen-Kashi Malina et al., Brain Res 2009, 1284: 12-21). Results are presented as mean±SEM (n=3-5 inserts per treatment).
as §1, with “(Example 1).” for “To evaluate the ability of MTX to permeate BBB, the in-vitro BBB model described in Example 1 was employed.”, “1,3-DAP-cationized-HSA” for “EA derivatized HSA”, “cationized-HSA” for “EA-HSA,”, “ibid).” for “Brain Res 2009, 1284: 12-21).”, “values (n=3” for “(n=3-5”

[3] = tested on: glioma cell (CNS-1); test: Glioma cell viability in the 'brain cancer-related' in vitro BBB model; type: cell-based, rat; conditions: PBEC-M treated with MTX in the presence of EA-HSA; within 48 hours
Procedure: The antineoplastic efficacy of EA-HSA against glioma cells located in the brain side further was validated in the “brain cancer-related” in vitro BBB model (FIGS. 1C and 3). PBEC-M were treated with MTX in the presence and absence of EA-HSA. Results are presented as mean±SEM (n=4 inserts per treatment). FIGS. 1B and 2 establish that EA-HSA enables MTX entry at a sufficient rate (FIG. 1B) resulting with 50% cell death in the abluminal located glioma cell, within 48 hours (FIG. 2; ***p<0.001).

[4] = tested on: tight-junction (TJ)-related membrane proteins (occludin, ZO-1), actin filaments in PBEC-M; test: Immunocytochemistry of tight-junction related proteins and actin in PBEC-M; type: cell-based, porcine
Procedure: The mode of action by which EA-HSA induces BBB permeability was investigated in a set of immunocytochemistry studies. These studies were performed to identify alterations in tight-junction (TJ)-related membrane protein(s). The in-vitro BBB assay described in example 1 was employed. The assays were carried out at a stage when TEER has been reduced by EA-HSA, to a level permitting the paracellular (between adjacent cells) passage of impermeable substances.
In the immunocytochemistry studies, PBEC were grown on Transwell inserts for several days until confluence was reached (TEER>300 Ωcm^2). The cells were then fixed with ice cold 4% para-formaldehyde for 10 min at 25° C. and exposed to blocking solution (20% horse serum/0.1% Triton/phosphate-buffered saline (PBS)) for 2 hr. The PBEC were then incubated with mouse anti-occludin and rabbit anti ZO-1 antibodies at a 1:200 dilution, overnight at 4° C., washed with PBS and stained with a Cy3-labeled anti-rabbit or Alexa-Flour 488 anti-mouse secondary antibodies (1:200, 1 hr, RT). Nuclei were counterstained with Hoechst reagent for 20 sec. After mounting (Aqua Poly/Mount), the inserts were observed and photographed. Actin filaments were stained with Alexa Fluor 488-conjugated phalloidin (3 μl/insert, incubated together with the secondary antibody).

[5] = tested on: naïve (normal) rat brains; test: MRI after intracranial-CED administration in naive rats (BBB disruption, hemorrhages, toxicity); conditions: for tissue toxicity, T2-weighted MRI: 7 days following treatment; for tissue damage, T2-weighted MRI: immediately following treatment; for hemorrhages, gradient echo MRI: immediately post treatment
[6] = PBEC-M incubated with EA-HSA 2 hr

Row | Substance | Time to reach max effect ([1]; 0.1 mg/ml) | Max. BBB opening after 2 hrs (% of initial TEER) ([1]; 0.1 mg/ml) | T1/2 (min to reach half initial TEER) ([1]; 1 mg/ml) | Time to reach max effect ([1]; 1 mg/ml) | Max. BBB opening after 2 hrs (% of initial TEER) ([1]; 1 mg/ml) | also measured
1 | Gly85-HSA: HSA in which 85 carboxylic moieties were linked to glycine amide | 120 min | 15 % of initial TEER | 5 to 15 min | 30 min | 0 % of initial TEER | T1/2 (min to reach half initial TEER) ([1]; 0.1 mg/ml): 60 to 120 min
2 | EA-HSA: HSA in which 80 carboxylic moieties were linked to ethylamine | – | – | 5 to 15 min | 45 min | 0 % of initial TEER | reduction of TEER value ([1]; 5.6 μM, within a short period (FIG. 1A)): 90-98%; increase of MTX permeability relative to control ([2]; 14 μM, 2 hr, MTX 1 mM): 47 fold; permeability value for the penetration of MTX [2]: 11.74±1.3 ×10^−6 cm/second; cell death in the abluminal located glioma cell [3]: 50%; expression of Occludin [4, 6]: significantly altered; expression pattern of ZO-1 [4, 6]: only slightly altered; actin filaments ([4]; PBEC-M incubated with EA-HSA 2 hr (FIG. 4)): disorganization; BBB disruption, T1-weighted MRI ([5]; 20 μg/rat CED, 30 min after treatment): BBB-disruption; tissue toxicity, T2-weighted MRI ([5]; 20 μg/rat CED): lack of tissue toxicity; tissue damage, T2-weighted MRI ([5]; 20 μg/rat CED): lack of; hemorrhages, gradient echo MRI ([5]; 20 μg/rat CED): lack of hemorrhages; duration of BBB disruption in vivo ([5]; single challenge, 20 μg/rat CED): transient
3 | Leu83-HSA: HSA in which 83 carboxylic moieties were linked to leucine amide | 120 min | 47 % of initial TEER | 5 to 15 min | 30 min | 0 % of initial TEER | T1/2 (min to reach half initial TEER) ([1]; 0.1 mg/ml): 60 to 120 min
4 | HSA-Gly85-MTX3: HSA in which 85 carboxylic moieties were linked to glycine amide and 3 lysine side chains were linked to MTX | – | – | – | – | – | BBB disruption, T1-weighted MRI ([5]; 40 μg/rat CED, 30 minutes after administration (FIGS. 10A-10B)): disrupted
5 | 1,3-DAP-cationized-HSA: HSA whose Aspartic acid and Glutamic acid side chain residues were cationized with 1,3 diaminopropane-2HCl | – | – | – | – | – | reduction of TEER value ([1]; 1 mg/ml, within a short period (FIG. 8A)): about 80%; permeability value for the penetration of MTX [2]: 6.48±0.23 ×10^−6 cm/second; BBB disruption, T1-weighted MRI ([5]; 40 μg/rat CED, 30 min after treatment): BBB-disruption; tissue toxicity, T2-weighted MRI ([5]; 40 μg/rat CED): lack of tissue toxicity; tissue damage, T2-weighted MRI ([5]; 40 μg/rat CED): lack of tissue damage; hemorrhages, gradient echo MRI ([5]; 40 μg/rat CED): lack of hemorrhages
6 | PA79-HSA: HSA in which 79 carboxylic moieties were linked to propylamine | 120 min | 97 % of initial TEER | 30 min | ~75 min | 2 % of initial TEER | –
7 | E-Alco-HSA: HSA in which 80 carboxylic moieties were linked to ethanol amine | – | – | 30 min | ~90 min | 4 % of initial TEER | –
8 | Ala78-HSA: HSA in which 78 carboxylic moieties were linked to alanine amide | 120 min | 78 % of initial TEER | 5 to 15 min | ~60 min | 1 % of initial TEER | –
